Sequences of proteins named here, by UniProt entry; tags and fusion partners are left off.
UniProt Q9BV86, whole entry: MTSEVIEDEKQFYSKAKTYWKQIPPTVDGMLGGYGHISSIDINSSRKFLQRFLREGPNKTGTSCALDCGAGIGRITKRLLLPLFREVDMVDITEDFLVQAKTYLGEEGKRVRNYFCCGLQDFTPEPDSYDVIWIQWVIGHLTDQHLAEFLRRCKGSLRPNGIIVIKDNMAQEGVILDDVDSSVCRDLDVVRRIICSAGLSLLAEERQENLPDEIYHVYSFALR

The list shows a part of the results, in another mix than the full data. Results filed as inconclusive are left out. A call without a number means that no potency is given here. Activity calls are given as the source filed them. Calls come from the whole dose curve; as a rule, active = well fitted inhibition curve with a large enough effect; inconclusive = small, poorly fitted or top-dose-only effect; inactive = flat fitted curve, though single readings scatter.
Each compound was assayed against N-terminal Xaa-Pro-Lys N-methyltransferase 1 (Homo sapiens) (UniProt Q9BV86) (assay: Primary qHTS for Inhibitors of N-terminal methyltransferase 1 (NTMT1): MTaseGlo Assay). Conditions: NTMT1 MTase-Glo SAH luminescence, purified enzyme; series mostly up to 114 µM.
From the text: Assay Submitter (PI): Rong Huang Ph.D.
Purdue University, West Lafayette, IN 47907
The N-terminal methytransferase 1 is the first methyltransferase that methylates protein alpha-N-amines and plays an important role in regulating cell mitosis, chromatin interactions and DNA repair. It is observed to be over-expressed in various cancer patient tissues like malignant melanoma and colorectal cancer tissues. Knockdown of NTMT1 in cancer cells causes cell mitotic defects and enhances sensitivity to DNA damaging chemotherapeutics. […] These critical cellular processes in which NTMT1 is implicated, coupled with emerging links to cellular dysfunction, strengthen the inference that NTMT1 is a compelling novel anticancer target. […] To address this unmet need, a panel of assay is created and established to enable quantitative high-throughput screening (qHTS) for novel, potent, and selective small molecule NTMT1 inhibitors. […]
MTaseGlo Assay is a luminescence screen that measure the activity of methyltransferases based on the reaction product S-adenosyl homocysteine (SAH). […]
8; Reagent; 5 uL; Dispense 5 uL of 1x MTase-Glo Detection Solution (R) to allow for ADP to be converted to ATP which was then detected with a luciferase reaction. […]
11; Detection; Luminescence; Plates were read on ViewLux detector (PerkinElmer). […]
In the case of `CCC(=O)N(c1ccccc1)C1(COC)CCN(CCn2nnn(CC)c2=O)CC1`, the Potency is reported as “inactive”. `CCC(=O)N(c1ccccc1)C1(COC)CCN(CCc2cccs2)CC1` was tested, and the Potency was active: 14.1 µM.

Reference: PubChem BioAssay AID1645870 (National Center for Advancing Translational Sciences (NCATS), 2021)
Note: nearly all actives have a fitted effect of over 65% in size.
Potency is the fitted concentration of half-maximal effect.
